Publication PMC5076878 (Bioorganic & medicinal chemistry letters, 2016)

Amino acid sequences for entries named in this document (tags omitted). A change or cut given only in a name is not applied to a line headed by its entry.
UniProt Q01650: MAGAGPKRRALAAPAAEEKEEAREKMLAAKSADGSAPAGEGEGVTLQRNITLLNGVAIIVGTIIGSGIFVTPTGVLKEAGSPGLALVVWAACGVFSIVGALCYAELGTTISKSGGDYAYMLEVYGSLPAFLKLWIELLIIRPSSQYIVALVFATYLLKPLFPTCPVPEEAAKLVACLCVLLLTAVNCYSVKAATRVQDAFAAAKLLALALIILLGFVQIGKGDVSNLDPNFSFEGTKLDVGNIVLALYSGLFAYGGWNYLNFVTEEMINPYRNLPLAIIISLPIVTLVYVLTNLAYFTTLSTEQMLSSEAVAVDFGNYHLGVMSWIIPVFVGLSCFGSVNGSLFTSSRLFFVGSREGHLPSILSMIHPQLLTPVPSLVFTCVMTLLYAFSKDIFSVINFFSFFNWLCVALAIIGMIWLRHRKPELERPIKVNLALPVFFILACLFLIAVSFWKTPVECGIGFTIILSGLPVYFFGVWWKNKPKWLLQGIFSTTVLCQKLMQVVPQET

Molecular target: human LAT1 (Homo sapiens, UniProt Q01650)
Format: cell-based
Details: compound at 200 μM; pre-loaded HEK-hLAT1 cells; at least triplicate

Efflux Rate of [3H]-gabapentin: 2.6 ± 0.4 fmol/min
SMILES: N[C@@H](Cc1ccc(O)cc1)C(=O)O [Compound 1b, tyrosine, reference compound]
